Here are results for 28 compounds from US9242996B2 (Novartis AG, priority 2013, dated 2016).

Chains of the proteins cited; added tags and fusions are not shown.
UniProt P28482, whole entry: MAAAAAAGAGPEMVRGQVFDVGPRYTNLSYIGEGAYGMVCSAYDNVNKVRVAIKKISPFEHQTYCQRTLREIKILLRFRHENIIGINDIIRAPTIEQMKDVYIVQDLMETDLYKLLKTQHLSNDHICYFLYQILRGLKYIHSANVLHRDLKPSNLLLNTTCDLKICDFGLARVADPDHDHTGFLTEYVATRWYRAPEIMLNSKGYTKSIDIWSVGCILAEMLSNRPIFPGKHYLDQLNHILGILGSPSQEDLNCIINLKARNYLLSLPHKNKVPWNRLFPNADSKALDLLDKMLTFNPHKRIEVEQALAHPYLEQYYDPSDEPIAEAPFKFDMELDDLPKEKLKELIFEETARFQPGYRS

The target of this assay is activated ERK2 (Homo sapiens (Human), UniProt P28482). Kind of assay: Activated ERK2 (20 pM) Kinase Assay (AlphaScreen, ERKtide phosphorylation). It is filed as biochemical. To be noted: 0.02 nM ERK2, 400 nM ERKtide peptide, 35 μM ATP, 30 min preincubation. On the procedure: Activated ERK2 (20 pM) Kinase Assay:
Compound potency against activated ERK2 was determined using a kinase assay that measures ERK2-catalyzed phosphorylation of biotinylated ERKtide peptide substrate ([Biotin]-AH[…]-[NH2], the peptide sequence derived from EGF receptor: SEQ ID NO:1). The assay was carried out in 20 mM HEPES [pH 7.5], 5 mM MgCl2, 1 mM DTT, 0.01% Tween-20, 0.05% BSA using 0.02 nM ERK2, 400 nM ERKtide peptide and 35 μM ATP (all concentrations are final in the reaction) in a total volume of 10.25 μL. […] Compound dilution series were prepared in 100% DMSO. ERK2 was preincubated with compounds for 30 minutes at ambient temperature. Reaction was initiated by addition of a substrate cocktail of ERKtide peptide and ATP and was allowed to proceed for 4 hours at ambient temperature. Reaction was terminated by addition of 10 μL of a 2× stop buffer consisting of 100 mM Tris-Cl [pH 7.5], 25 mM EDTA, 0.01% Tween 20, 20 μg/mL of AlphaScreen Protein A Acceptor Beads, 20 μg/mL of Streptavidin Donor Beads (PerkinElmer, Waltham, Mass.), and 1:1000 dilution phospho-EGF Receptor (Thr669) antibody (Cat #8808, Cell Signaling Technology, Danvers, Mass.). Terminated reactions were read, after overnight incubation in the dark, on an EnVision Multilabel Plate Reader (PerkinElmer, Waltham, Mass.), with excitation and emission wavelengths set to 680 nm and 570 nm, respectively. IC50 values were determined using a four-parameter fit.
A general note: Alpha assays give light when donor and acceptor beads are brought close together.
A word on the IC50: it is the midpoint of a concentration-inhibition curve. Read a low IC50 as greater potency. Turning to `CNC[C@@H](NC(=O)c1ccc(-c2nc([C@H]3CCC[C@@H](O)C3)cnc2N)cc1F)c1cc(F)cc(Br)c1` (single isomer, unassigned) [Example 362], it took 0.0291 nM to reach half-maximal inhibition (IC50).

In the case of `CNC[C@@H](NC(=O)c1ccc(-c2nc([C@@H]3CCC[C@H](O)C3)cnc2N)cc1F)c1cc(F)cc(Br)c1` (single isomer, unassigned) [Example 363], the concentration for half-maximal inhibition (IC50) was 0.0557 nM. Compared with the last compound, the IC50 is about 1.9-fold higher.

As for `CNC[C@@H](NC(=O)c1ccc(-c2nc(C3CCCC(O)C3)cnc2N)cc1F)c1cccc(Cl)c1` (single isomer, unassigned) [Example 364], half-maximal inhibition (IC50) was put at 0.205 nM. This IC50 lies about 3.7-fold higher than the previous one.

`CNC[C@@H](NC(=O)c1ccc(-c2nc(C3CCCC(O)C3)cnc2N)cc1F)c1cccc(Cl)c1` (single isomer, unassigned) [Example 366] came in with an IC50 of 0.127 nM.

The compound `CNC[C@@H](NC(=O)c1ccc(-c2nc(C3CCCC(O)C3)cnc2N)cc1F)c1cccc(Cl)c1` (single isomer, unassigned) [Example 369] came in with an IC50 of 0.213 nM.

On to `Nc1ncc(C2CCC(CO)CC2)nc1-c1ccc(C(=O)N[C@H](CO)c2cccc(Cl)c2)c(F)c1` (single isomer, unassigned) [Example 444], for which the IC50 stood at 0.215 nM.

`Nc1ncc(C2CCC(CO)CC2)nc1-c1ccc(C(=O)N[C@H](CO)c2cccc(Cl)c2)c(F)c1` (single isomer, unassigned) [Example 445] gave an IC50 of 0.531 nM.

With `Nc1ncc(C2CCC(CO)CC2)nc1-c1ccc(C(=O)N[C@H](CO)c2cc(F)cc(Br)c2)c(F)c1` (single isomer, unassigned) [Example 446], the IC50 worked out at 0.0464 nM. This IC50 lies about 11-fold lower than the previous one.

`Nc1ncc(C2CCC(CO)CC2)nc1-c1ccc(C(=O)N[C@H](CO)c2cc(F)cc(Br)c2)c(F)c1` (single isomer, unassigned) [Example 447] gave an IC50 of 0.163 nM. Against the preceding compound, the IC50 is about 3.5-fold higher.

On to `Nc1ncc(C2CCOCC2)nc1-c1ccc(C(=O)N[C@H](CO)c2ccc(F)c(Cl)c2)c(F)c1` [Example 55, (S)-4-(3-amino-6-(tetrahydro-2H-pyran-4-yl)pyrazin-2-yl)-N-(1-(3-chloro-4-fluorophenyl)-2-hydroxyethyl)-2-fluorobenzamide], for which it took 0.139 nM to reach half-maximal inhibition (IC50).

For the compound `Nc1ncc([C@H]2CC[C@H](O)CC2)nc1-c1ccc(C(=O)N[C@H](CO)c2cc(F)cc(Br)c2)c(F)c1` [Example 175, 4-(3-amino-6-((1r,4S)-4-hydroxycyclohexyl)pyrazin-2-yl)-N—((S)-1-(3-bromo-5-fluorophenyl)-2-hydroxyethyl)-2-fluorobenzamide], the IC50 stood at 0.0285 nM. Compared with the last compound, the IC50 is about 4.9-fold lower.

For the compound `Cc1c(-c2cnc(N)c(-c3ccc(C(=O)N[C@H](CN)c4cccc(Cl)c4)c(F)c3)c2)cnn1C` [Example 248, (S)-N-(2-amino-1-(3-chlorophenyl)ethyl)-4-(2-amino-5-(1,5-dimethyl-1H-pyrazol-4-yl)pyridin-3-yl)-2-fluorobenzamide], the midpoint of inhibition, the IC50, lay at 0.0364 nM.

`Cc1nn(C)c(C)c1-c1cnc(N)c(-c2ccc(C(=O)N[C@H](CN)c3cccc(Cl)c3)c(F)c2)c1` [Example 250, (S)-N-(2-amino-1-(3-chlorophenyl)ethyl)-4-(2-amino-5-(1,3,5-trimethyl-1H-pyrazol-4-yl)pyridin-3-yl)-2-fluorobenzamide] gave an IC50 of 0.0364 nM.

With `Cn1nncc1-c1cnc(N)c(-c2ccc(C(=O)N[C@H](CO)c3cc(F)cc(C(F)F)c3)c(F)c2)c1` [Example 272, (S)-4-(2-amino-5-(1-methyl-1H-1,2,3-triazol-5-yl)pyridin-3-yl)-N-(1-(3-(difluoromethyl)-5-fluorophenyl)-2-hydroxyethyl)-2-fluorobenzamide], the IC50 worked out at 0.0619 nM.

In the case of `Nc1ncc([C@H]2CC[C@H](O)CC2)nc1-c1ccc(C(=O)N[C@H](CO)c2cccc(C(F)F)c2)c(F)c1` [Example 339, 4-(3-amino-6-((1r,4S)-4-hydroxy-cyclohexyl)pyrazin-2-yl)-N-((S)-1-(3-(difluoromethyl)phenyl)-2-hydroxyethyl)-2-fluorobenzamide], 0.105 nM corresponded to half-maximal inhibition (IC50).

In turn, `NC[C@@H](NC(=O)c1ccc(-c2nc([C@@H]3CC[C@@H](O)[C@@H](F)C3)cnc2N)cc1F)c1cc(F)cc(Br)c1` [Example 353, N-((S)-2-amino-1-(3-bromo-5-fluorophenyl)ethyl)-4-(3-amino-6-((1R,3S,4R)-3-fluoro-4-hydroxy-cyclohexyl)pyrazin-2-yl)-2-fluorobenzamide] yielded an IC50 of 0.0103 nM.

For `NC[C@@H](NC(=O)c1ccc(-c2nc([C@H]3CC[C@H](O)[C@H](F)C3)cnc2N)cc1F)c1cc(F)cc(Br)c1` [Example 354, N-((S)-2-amino-1-(3-bromo-5-fluorophenyl)ethyl)-4-(3-amino-6-((1S,3R,4S)-3-fluoro-4-hydroxy-cyclohexyl)pyrazin-2-yl)-2-fluorobenzamide], the IC50 was found to be 0.0194 nM.

In turn, `NC[C@@H](NC(=O)c1ccc(-c2nc([C@H]3CC[C@H](O)CC3)cnc2N)cc1F)c1cccc(Cl)c1` [Example 392, N-((S)-2-amino-1-(3-chlorophenyl)ethyl)-4-(3-amino-6-((1r,4S)-4-hydroxy-cyclohexyl)pyrazin-2-yl)-2-fluorobenzamide] came in with an IC50 of 0.0452 nM.

In the case of `Nc1ncc(C2CCC(=O)CC2)nc1-c1ccc(C(=O)N[C@H](CO)c2cc(F)cc(Br)c2)c(F)c1` [Example 397, (S)-4-(3-amino-6-(4-oxocyclohexyl)pyrazin-2-yl)-N-(1-(3-bromo-5-fluorophenyl)-2-hydroxyethyl)-2-fluorobenzamide], 0.036 nM corresponded to half-maximal inhibition (IC50). This IC50 and that of the compound before are within 1.5-fold of each other.

As for `[N-]=[N+]=NC[C@@H](NC(=O)c1ccc(-c2nc([C@H]3CC[C@H](O)CC3)cnc2N)cc1F)c1cccc(Cl)c1` [Example 402, 4-(3-amino-6-((1r,4S)-4-hydroxy-cyclohexyl)pyrazin-2-yl)-N-((S)-2-azido-1-(3-chlorophenyl)ethyl)-2-fluorobenzamide], the IC50 was found to be 0.436 nM.

Compound `[N-]=[N+]=NC[C@@H](NC(=O)c1ccc(-c2nc([C@H]3CC[C@@H](O)CC3)cnc2N)cc1F)c1cccc(Cl)c1` [Example 403, 4-(3-amino-6-((1s,4R)-4-hydroxy-cyclohexyl)pyrazin-2-yl)-N-((S)-2-azido-1-(3-chlorophenyl)ethyl)-2-fluorobenzamide] showed an IC50 of 5.81 nM.

For `CC(=O)N[C@H]1CC[C@@H](c2cnc(N)c(-c3ccc(C(=O)N[C@H](CO)c4cccc(Cl)c4)c(F)c3)n2)CC1` [Example 432, 4-(6-((1s,4R)-4-acetamido-cyclohexyl)-3-aminopyrazin-2-yl)-N-((S)-1-(3-chlorophenyl)-2-hydroxyethyl)-2-fluorobenzamide], half-maximal inhibition (IC50) required 1.11 nM.

Consider `CS(=O)(=O)N[C@H]1CC[C@@H](c2cnc(N)c(-c3ccc(C(=O)N[C@H](CO)c4cccc(Cl)c4)c(F)c3)n2)CC1` [Example 433, 4-(3-amino-6-((1s,4R)-4-(methyl-sulfonamido)cyclohexyl)pyrazin-2-yl)-N-((S)-1-(3-chlorophenyl)-2-hydroxyethyl)-2-fluorobenzamide], for which the IC50 was 2.9 nM.

Regarding `COC(=O)N[C@H]1CC[C@@H](c2cnc(N)c(-c3ccc(C(=O)N[C@H](CO)c4cccc(Cl)c4)c(F)c3)n2)CC1` [Example 434, methyl ((1R,4s)-4-(5-amino-6-(4-(((S)-1-(3-chlorophenyl)-2-hydroxyethyl)carbamoyl)-3-fluorophenyl)pyrazin-2-yl)cyclohexyl) carbamate], 1.57 nM corresponded to half-maximal inhibition (IC50).

Turning to `Nc1ncc([C@H]2CC[C@@H](O)CC2)nc1-c1ccc(C(=O)N[C@H](CO)c2cc(F)cc(Br)c2)c(F)c1` [Example 437, 4-(3-amino-6-((1s,4R)-4-hydroxy-cyclohexyl)pyrazin-2-yl)-N-((S)-1-(3-bromo-5-fluorophenyl)-2-hydroxyethyl)-2-fluorobenzamide], the IC50 came to 0.54 nM.

For `Nc1ncc([C@@H]2CC[C@@H](O)C2)nc1-c1ccc(C(=O)N[C@H](CO)c2cc(F)cc(I)c2)c(F)c1` [Example 453, 4-(3-amino-6-((1R,3R)-3-hydroxycyclopentyl)pyrazin-2-yl)-2-fluoro-N—((S)-1-(3-fluoro-5-iodophenyl)-2-hydroxyethyl)benzamide], the IC50 amounted to 0.0684 nM.

As for `Nc1ncc([C@H]2CC[C@H](O)C(F)(F)C2)nc1-c1ccc(C(=O)N[C@H](CO)c2cc(F)cc(I)c2)c(F)c1` [Example 456, 4-(3-amino-6-((1S,4S)-3,3-difluoro-4-hydroxycyclohexyl)pyrazin-2-yl)-2-fluoro-N—((S)-1-(3-fluoro-5-iodophenyl)-2-hydroxyethyl)benzamide], the midpoint of inhibition, the IC50, lay at 0.0872 nM.

As for `Nc1ncc([C@H]2CCC(=O)NC2)nc1-c1ccc(C(=O)N[C@H](CO)c2cc(F)cc(I)c2)c(F)c1` [Example 478b, 4-(3-amino-6-((S)-6-oxopiperidin-3-yl)pyrazin-2-yl)-2-fluoro-N—((S)-1-(3-fluoro-5-iodophenyl)-2-hydroxyethyl)benzamide], half-maximal inhibition (IC50) was put at 0.039 nM. Compared with the last compound, the IC50 is about 2.2-fold lower.
